Data as given in article PMC2190579 (The Journal of Cell Biology, 2001).

Chains of the proteins cited; added tags and fusions are not shown. Residues count along the entry.
UniProt P08648, 42-1049, chain 1 of 2: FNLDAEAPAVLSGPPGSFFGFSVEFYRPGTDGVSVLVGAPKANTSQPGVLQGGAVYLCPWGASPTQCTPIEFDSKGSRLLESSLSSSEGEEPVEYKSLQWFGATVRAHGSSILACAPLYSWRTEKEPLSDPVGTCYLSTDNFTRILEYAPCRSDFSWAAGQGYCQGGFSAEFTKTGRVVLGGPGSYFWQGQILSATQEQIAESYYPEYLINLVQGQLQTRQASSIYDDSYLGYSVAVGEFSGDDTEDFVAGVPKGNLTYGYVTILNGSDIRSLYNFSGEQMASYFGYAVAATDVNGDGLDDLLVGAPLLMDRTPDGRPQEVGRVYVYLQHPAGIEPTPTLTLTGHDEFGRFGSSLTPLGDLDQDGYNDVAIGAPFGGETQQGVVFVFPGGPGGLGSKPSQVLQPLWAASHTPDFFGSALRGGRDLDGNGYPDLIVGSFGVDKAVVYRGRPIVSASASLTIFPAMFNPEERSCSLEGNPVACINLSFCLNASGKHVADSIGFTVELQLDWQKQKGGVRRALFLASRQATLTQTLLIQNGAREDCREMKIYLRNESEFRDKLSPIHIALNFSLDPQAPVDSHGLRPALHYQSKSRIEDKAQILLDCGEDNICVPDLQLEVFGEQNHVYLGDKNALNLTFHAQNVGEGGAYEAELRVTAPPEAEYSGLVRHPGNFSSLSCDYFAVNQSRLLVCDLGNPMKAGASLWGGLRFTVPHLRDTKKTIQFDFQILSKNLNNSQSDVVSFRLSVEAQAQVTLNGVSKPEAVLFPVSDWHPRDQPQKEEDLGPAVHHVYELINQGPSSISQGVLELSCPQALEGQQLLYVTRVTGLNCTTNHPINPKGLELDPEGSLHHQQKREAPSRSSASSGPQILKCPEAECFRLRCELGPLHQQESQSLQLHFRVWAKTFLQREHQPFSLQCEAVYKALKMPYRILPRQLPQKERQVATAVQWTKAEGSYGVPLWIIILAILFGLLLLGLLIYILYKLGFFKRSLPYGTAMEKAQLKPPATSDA

Key:
[1] = tested on: K562 erythroleukemia cells; assay: Ligand-coated bead-binding assay; assay type: cell-based, human; settings: number of beads bound per 100 cells; 1 h at 37°C; mean ± SEM
[2] = biological target: α5β1 integrin (human (endogenous in K562)) (UniProt P08648); assay: ligand-coated bead binding to cells

Substance | AI (adhesion index) of ligand-coated beads bound to K562 cells [1] | adhesion index (AI, beads bound per 100 K562 cells) (beads bound per 100 cells) [2]
human serum albumin: coated on beads to determine nonspecific binding | 46 ± 10 | 
human fibronectin (ligand) |  | 318
